Experiments:
[1] = Pharmacokinetic study after oral administration; set-up: species or system Sprague–Dawley (SD) rats; conditions: rat, in vivo, 50 mg/kg
Method: Pharmacokinetics of PCur and Cur suspension were tested in SD rats, which were randomly divided into two study groups with six in each group. PCur and Cur suspension were given orally at a dose of 50 mg/kg of Cur. Three hundred microliter of blood samples were collected at 5, 10, 15, 30 and 45 min, 1, 2, 4, 8, 12 and 24 h post oral gavage and centrifuged at 12 000 rpm for 10 min. The supernatant plasma was collected and stored at −20 °C for UPLC–MS/MS analysis. The concentration of Cur was determined by a Waters ACQUITY UPLC system using a Xevo Triple Quadrupole MS equipped with an electrospray ionization (ESI) interface (Waters Co., Milford, MA). One hundred microliter plasma was mixed with 50 μL chloramphenicol (IS) and 50 μL acetonitrile, followed by vortexing for 3 min, and centrifuged at 12 000 rpm for 10 min. […] An aliquot of 5 μL was injected into the UPLC–MS/MS for analysis. Pharmacokinetic parameters were calculated using DAS 2.1 software (BioGuider Co., Shanghai, China).

Substance: PEG-ss-curcumin [PCur]
- T1/2 relative to Cur suspension [1]: 1.74 fold
- cumulative drug release (rat cecal suspension, within 24 h): ~70%
- release of Cur (sterile cecal content (control)): significantly slower

— publication PMC8240970, “Orally delivered polycurcumin responsive to bacterial reduction for targeted therapy of inflammatory bowel disease” (Drug Delivery, 2017)
